Consider one substance from US20220389160A1, “EFFECTIVE INTRANASAL DELIVERY TO BRAIN” (priority 2019, published 2022).

The series in a line: PPA-Erbitux delivery to the brain by LC-MS/MS. The class given is in vivo. Particulars: normal mice; intranasal; after administration.

Turning to “PPA-Erbitux: therapeutic antibody-conjugated PPA”, the “time of highest level in brain tissue” value is 2 h.
